Data published in US7404945B2, “Method of evaluating pharmacological effects of medicine” (Tokyo Gas Company Limited, priority 2002, dated 2008).

Protein sequences, listed by entry. Tags and fused reporters are not part of them.
UniProt P31390, whole entry: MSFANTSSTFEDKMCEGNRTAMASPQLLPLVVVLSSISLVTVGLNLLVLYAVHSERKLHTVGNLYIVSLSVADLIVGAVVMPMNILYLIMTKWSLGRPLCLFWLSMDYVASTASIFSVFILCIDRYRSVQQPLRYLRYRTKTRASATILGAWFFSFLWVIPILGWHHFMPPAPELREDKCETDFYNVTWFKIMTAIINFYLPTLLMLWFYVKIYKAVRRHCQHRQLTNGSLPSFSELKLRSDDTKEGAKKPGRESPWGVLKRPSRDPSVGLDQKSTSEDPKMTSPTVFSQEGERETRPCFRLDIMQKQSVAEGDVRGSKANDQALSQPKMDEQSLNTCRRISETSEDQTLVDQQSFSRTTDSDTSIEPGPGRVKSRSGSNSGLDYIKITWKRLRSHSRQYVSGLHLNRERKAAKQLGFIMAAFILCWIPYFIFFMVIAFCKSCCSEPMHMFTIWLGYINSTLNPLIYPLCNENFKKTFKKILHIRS

Target: H1 receptor (Rattus norvegicus, UniProt P31390)
Conditions: rats, chlorpheniramine maleate 40 mg/kg i.p. twice; [1,2-13C]ornithine 10 mg/kg femoral vein 1 hour 30 minutes after the last administration; n=2

Δ13C 10 minutes after the administration: 84.7±1.9 ‰
Structure (SMILES): CN(C)CCC(c1ccc(Cl)cc1)c1ccccn1 (stereo not shown) [chlorpheniramine maleate]

Counter-ions that a name gives are not always drawn.
